Patent US20260382581A1, “COMPOSITIONS COMPRISING CYTISINE IN THE TREATMENT AND/OR PREVENTION OF ADDICTION IN SUBJECTS IN NEED THEREOF” (published 2026)

Experiment: claude: adverse events, incl. those leading to dose reduction, interruption or discontinuation
Conditions: Safety Set, N = 106
Source text: Cytisinicline was well tolerated and no serious adverse events were reported. Similar rates of adverse events (AE's) were observed between treatment arms (54.7% in the placebo arm vs. 50.9% in the cytisinicline arm). The most commonly reported (>5%) AEs in the placebo arm were anxiety, headache, upper respiratory tract infection, nausea, and Covid-19 infection. In the cytisinicline arm, >5% AEs reported were sleep disturbances, anxiety, headache, fatigue, and upper respiratory tract infection.
A second measurement consisted of biochemically verified continuous vaping abstinence at any time during treatment, with vaping abstinence at Week 3-6 or Week 6-9 for of cytisinicline treatment vs placebo. 7-day point prevalence rates were compared for vaping abstinence (Week 2 to 12) (FIG. 62). An additional measurement included reduction in daily vaping as measured by cotinine, where cytisinicline treatment vs placebo for a reduction in nicotine vaping using weekly quantitative cotinine levels from Week 2 to Week 12. Safety was assessed by adverse effects and serious adverse effects, considering number, severity, and attribution to study drug. Early beneficial effect was observed and continued throughout the 12 weeks with some weeks at or close to statistical significance (weeks 4, 6, 7, 8, 9, and 12) (FIGS. 63-65). Cotinine values less than 1 were converted to 1 due to extreme asymmetry (FIG. 65)
Adverse Events are coded using MedDRA version 23.1.

Q: With `O=c1cccc2n1C[C@@H]1CNC[C@H]2C1` as the compound, how does the “TEAE: Concussion, subjects” value read?
A: 0 n

Q: What about the “TEAE: Constipation, percent” value of the same compound?
A: (1.9) %

Q: What about the “TEAE: Constipation, subjects” value of the same compound?
A: 2 n

Q: What about the “TEAE: Decreased appetite, percent” value of the same compound?
A: (0.9) %

Q: What about the “TEAE: Decreased appetite, subjects” value of the same compound?
A: 1 n

Q: What about the “TEAE: Depressed mood, subjects” value of the same compound?
A: 0 n

Q: What about the “TEAE: Depression, subjects” value of the same compound?
A: 0 n

Q: What about the “TEAE: Dermatitis contact, percent” value of the same compound?
A: (0.9) %

Q: What about the “TEAE: Dermatitis contact, subjects” value of the same compound?
A: 1 n

Q: And the “TEAE: Disturbance in attention, percent” value?
A: (0.9) %

Q: And the “TEAE: Disturbance in attention, subjects” value?
A: 1 n

Q: What about the “TEAE: Dizziness, percent” value of the same compound?
A: (2.8) %

Q: And the “TEAE: Dizziness, subjects” value?
A: 3 n

Q: What about the “TEAE: Dry mouth, percent” value of the same compound?
A: (1.9) %

Q: And the “TEAE: Dry mouth, subjects” value?
A: 2 n

Q: And the “TEAE: Dyspepsia, percent” value?
A: (0.9) %

Q: What about the “TEAE: Dyspepsia, subjects” value of the same compound?
A: 1 n

Q: What about the “TEAE: Ear infection, subjects” value of the same compound?
A: 0 n

Q: What about the “TEAE: Eye pruritus, percent” value of the same compound?
A: (0.9) %

Q: And the “TEAE: Eye pruritus, subjects” value?
A: 1 n

Q: What about the “TEAE: Fatigue, percent” value of the same compound?
A: (5.7) %

Q: And the “TEAE: Fatigue, subjects” value?
A: 6 n

Q: And the “TEAE: Female sterilisation, percent” value?
A: (0.9) %

Q: What about the “TEAE: Female sterilisation, subjects” value of the same compound?
A: 1 n

Q: And the “TEAE: Gastroenteritis norovirus, subjects” value?
A: 0 n

Q: What about the “TEAE: Gastroenteritis viral, subjects” value of the same compound?
A: 0 n

Q: What about the “TEAE: Gastroenteritis, percent” value of the same compound?
A: (1.9) %

Q: And the “TEAE: Gastroenteritis, subjects” value?
A: 2 n

Q: What about the “TEAE: Gout, percent” value of the same compound?
A: (0.9) %

Q: And the “TEAE: Gout, subjects” value?
A: 1 n

Q: And the “TEAE: Headache, percent” value?
A: (6.6) %

Q: What about the “TEAE: Headache, subjects” value of the same compound?
A: 7 n

Q: And the “TEAE: Hot flush, percent” value?
A: (0.9) %

Q: And the “TEAE: Hot flush, subjects” value?
A: 1 n

Q: And the “TEAE: Hyperhidrosis, subjects” value?
A: 0 n

Q: What about the “TEAE: Increased appetite, percent” value of the same compound?
A: (0.9) %

Q: What about the “TEAE: Increased appetite, subjects” value of the same compound?
A: 1 n

Q: What about the “TEAE: Influenza, percent” value of the same compound?
A: (1.9) %

Q: And the “TEAE: Influenza, subjects” value?
A: 2 n

Q: What about the “TEAE: Insomnia, percent” value of the same compound?
A: (10.4) %

Q: What about the “TEAE: Insomnia, subjects” value of the same compound?
A: 11 n

Q: And the “TEAE: Irritability, percent” value?
A: (2.8) %

Q: And the “TEAE: Irritability, subjects” value?
A: 3 n

Q: And the “TEAE: Menorrhagia, percent” value?
A: (0.9) %

Q: And the “TEAE: Menorrhagia, subjects” value?
A: 1 n

Q: What about the “TEAE: Migraine, percent” value of the same compound?
A: (0.9) %

Q: And the “TEAE: Migraine, subjects” value?
A: 1 n

Q: What about the “TEAE: Musculoskeletal chest pain, percent” value of the same compound?
A: (0.9) %

Q: What about the “TEAE: Musculoskeletal chest pain, subjects” value of the same compound?
A: 1 n

Q: And the “TEAE: Nasal congestion, subjects” value?
A: 0 n

Q: What about the “TEAE: Nasopharyngitis, subjects” value of the same compound?
A: 0 n

Q: What about the “TEAE: Nausea, percent” value of the same compound?
A: (4.7) %

Q: And the “TEAE: Nausea, subjects” value?
A: 5 n

Q: What about the “TEAE: Neck pain, percent” value of the same compound?
A: (1.9) %

Q: What about the “TEAE: Neck pain, subjects” value of the same compound?
A: 2 n

Q: What about the “TEAE: Oropharyngeal pain, percent” value of the same compound?
A: (1.9) %

Q: What about the “TEAE: Oropharyngeal pain, subjects” value of the same compound?
A: 2 n

Q: And the “TEAE: Otitis media, subjects” value?
A: 0 n

Q: And the “TEAE: Pain in jaw, subjects” value?
A: 0 n

Q: What about the “TEAE: Panic attack, percent” value of the same compound?
A: (1.9) %

Q: What about the “TEAE: Panic attack, subjects” value of the same compound?
A: 2 n

Q: What about the “TEAE: Pelvic pain, percent” value of the same compound?
A: (0.9) %

Q: What about the “TEAE: Pelvic pain, subjects” value of the same compound?
A: 1 n

Q: And the “TEAE: Post viral fatigue syndrome, subjects” value?
A: 0 n

Q: What about the “TEAE: Pregnancy, subjects” value of the same compound?
A: 0 n

Q: And the “TEAE: Procedural anxiety, percent” value?
A: (0.9) %

Q: And the “TEAE: Procedural anxiety, subjects” value?
A: 1 n

Q: And the “TEAE: Pyrexia, subjects” value?
A: 0 n

Q: And the “TEAE: Restless legs syndrome, percent” value?
A: (0.9) %

Q: What about the “TEAE: Restless legs syndrome, subjects” value of the same compound?
A: 1 n

Q: And the “TEAE: Sensitive skin, percent” value?
A: (0.9) %

Q: What about the “TEAE: Sensitive skin, subjects” value of the same compound?
A: 1 n

Q: What about the “TEAE: Sinus congestion, percent” value of the same compound?
A: (0.9) %

Q: What about the “TEAE: Sinus congestion, subjects” value of the same compound?
A: 1 n

Q: What about the “TEAE: Sinusitis, subjects” value of the same compound?
A: 0 n

Q: And the “TEAE: Stress, percent” value?
A: (0.9) %

Q: And the “TEAE: Stress, subjects” value?
A: 1 n

Q: And the “TEAE: Thirst, percent” value?
A: (0.9) %

Q: What about the “TEAE: Thirst, subjects” value of the same compound?
A: 1 n

Q: And the “TEAE: Tooth extraction, subjects” value?
A: 0 n

Q: What about the “TEAE: Trismus, subjects” value of the same compound?
A: 0 n

Q: And the “TEAE: Upper respiratory tract infection, percent” value?
A: (5.7) %

Q: And the “TEAE: Upper respiratory tract infection, subjects” value?
A: 6 n

Q: And the “TEAE: Urinary tract infection, percent” value?
A: (0.9) %

Q: What about the “TEAE: Urinary tract infection, subjects” value of the same compound?
A: 1 n

Q: What about the “TEAE: Vasectomy, percent” value of the same compound?
A: (0.9) %

Q: And the “TEAE: Vasectomy, subjects” value?
A: 1 n

Q: What about the “TEAE: Vomiting, percent” value of the same compound?
A: (0.9) %

Q: And the “TEAE: Vomiting, subjects” value?
A: 1 n

Q: And the “TEAE: Wisdom teeth removal, percent” value?
A: (0.9) %

Q: And the “TEAE: Wisdom teeth removal, subjects” value?
A: 1 n

Q: And the “Mild TEAE, events” value (Severity)?
A: 92 Events

Q: And the “Mild TEAE, percent of subjects” value (Severity)?
A: 47.2%

Q: What about the “Mild TEAE, subjects” value (Severity) of the same compound?
A: 50 n

Q: And the “Moderate TEAE, events” value (Severity)?
A: 26 Events

Q: And the “Moderate TEAE, percent of subjects” value (Severity)?
A: 15.1%

Q: And the “Moderate TEAE, subjects” value (Severity)?
A: 16 n

Q: What about the “Severe TEAE, events” value (Severity) of the same compound?
A: 1 Events

Q: And the “Severe TEAE, percent of subjects” value (Severity)?
A: 0.9%

Q: And the “Severe TEAE, subjects” value (Severity)?
A: 1 n

Q: What about the “At Least One TEAE, percent” value (by preferred term) of the same compound?
A: (50.9) %

Q: What about the “At Least One TEAE, subjects” value (by preferred term) of the same compound?
A: 54 n

Q: And the “At Least One TEAE, percent of subjects” value (overall summary)?
A: 50.9%

Q: What about the “At Least One TEAE, subjects” value (overall summary) of the same compound?
A: 54 n

Q: What about the “TEAE, events” value (overall summary) of the same compound?
A: 119 Events
